Consider 1 compound from patent US10844062B2, “Pyridine derivative inhibiting RAF kinase and vascular endothelial growth factor receptor, method for preparing same, pharmaceutical composition containing same, and use thereof” (SAMJIN PHARMACEUTICAL CO., LTD., priority 2016, dated 2020).

Assay [1] has as its system LS513 KRAS G12V (colon). In words: MTT assay. Type of assay: cell-based, human. The settings on record: 3 days incubation, read-out: MTT assay IC50 KRAS mutant (Colon) LS513 KRAS G12V. The method, then:
(§1) MTT assay is frequently used for the purpose of primary screening for the sensitivity of anticancer agents and to examine cytotoxicity. When cancer cells are treated with varying concentrations of any anticancer agent for a predetermined time to induce death of the cells and are then treated with MTT, and when the formation of formazan is measured, the concentration of the anticancer agent, at which about 50% of the cells survive, can be determined. This concentration value is called IC50. IC50 values differ between drugs, and thus can be characteristic of the drugs. Using this method, the effects of anticancer agents against cell proliferation can be quantitatively compared. Thus, in order to measure the cytotoxicity of samples, MTT assay was performed using CellTiter 96 Non-radioactive Cell Proliferation Assay Kit (Promega).
Cells in a cell suspension were counted with a hematocytometer, and then 200 μL of the cell suspension was added to each well of a 96 well plate at a desired concentration (cell amount determined depending on a cell line). After cell seeding, the cells were incubated in a CO2 incubator at 37° C. overnight. After one day of cell stabilization, the cells were treated with desired concentrations of the compounds. The cells were incubated in a CO2 incubator at 37° C. for 3 days, and then the sample was removed, and 200 μL of MTT solution was added to each well. […]

The subject of assay [2] is LS513 human colorectal cancer cell line xenograft. Put plainly: Antitumor effect on human colorectal cancer LS513 cell line xenograft. Type of assay: in vivo, Balb/c nu/nu nude mice. The settings on record: oral, twice a day, 60 mg/kg or 30 mg/kg (dose not specified per compound), 14 days. The procedure:
The LS513 human colorectal cancer cell line was purchased from the ATCC and incubated in a 5% CO2 incubator with RPMI-1640b medium containing 10% fetal bovine serum and 1% penicillin-streptomycin at 37° C.
In this experiment, 5 to 6-week-old female Balb/c nu/nu nude mice (weighed 18 to 20 g) were used. The mice were provided from Nara Biotech Co., Ltd. During the experiment, all the animals were housed on a mouse constant temperature/constant humidity shelf (Individually Ventilated Cages System, LAB & BIO).
Each cage (37.2 cm length×19.2 cm width×13.1 cm height) was sterilized with a sterilizer, and eight mice were received in each cage. […]
The mice were acclimated to the housing facility for 1 week, and then 0.1 mL of a cell suspension containing 1×10^7 cells was injected subcutaneously into the right flank of each mouse. After cell transplantation, the volume of the formed tumor was measured, and mice with formed tumors having a volume of 150 mm^3 or more were randomly divided into groups (each consisting of 7 to 8 animals) for treatment with the test compounds and a control. […] At 3-day intervals from the starting day of the administration, the long axis and short axis of the tumor were measured with digital vernier calipers, and the tumor volume was calculated using the following equation and recorded: Tumor volume (TV)=Long axis×short axis^2/2. […]

The test system of assay [3] is HUVEC (VEGF). In words: MTT assay. Type of assay: cell-based. The note with it: Table 5; 3 days incubation. The method, then: as §1
(§2) Cells in a cell suspension were counted with a hematocytometer, and then 200 μL of the cell suspension was added to each well of a 96 well plate at a desired concentration (cell amount determined depending on a cell line). After cell seeding, the cells were incubated in a CO2 incubator at 37° C. overnight. After one day of cell stabilization, the cells were treated with desired concentrations of the compounds. The cells were incubated in a CO2 incubator at 37° C. for 3 days, and then the sample was removed, and 200 μL of MTT solution was added to each well. After 2 hours of incubation, the MTT dilution was carefully shaken, and 200 μL of DMSO was added to each well, followed by shaking with a plate shaker for 60 minutes. The absorbance at a wavelength of 570 nm was measured using an ELISA reader, thereby determining the IC50 value of each compound (the absorbance indicates the amount of MTT reduced by the cells and is proportional to the number of viable cells present in each well).

Assay [4] deals with SW620 KRAS G12V (colon). In words: MTT assay. Type of assay: cell-based. The settings on record: Table 5; 3 days incubation; read-out: MTT assay IC50 KRAS mutant (Colon) SW620 KRAS G12V. The method, then:
as §1, §2

In assay [5] the test system is WiDR BRAF V600E (colon). In words: MTT assay. Type of assay: cell-based. The note with it: Table 5; 3 days incubation; read-out: MTT assay IC50 BRAF mutant (Colon) WiDR BRAF V600E. The method, then:
as §1, §2

Assay [6] relates to HCT-116 KRAS G13D (colon). Put plainly: MTT assay. Type of assay: cell-based. The settings on record: Table 5; 3 days incubation; read-out: MTT assay IC50 KRAS mutant (Colon) HCT-116 KRAS G13D. The method, then: as §1, §2
Assay [7] concerns SK-MEL2 NRAS Q61R (melanoma). In words: MTT assay. Type of assay: cell-based. The settings on record: Table 5; 3 days incubation. The method, then:
as §1, §2

The subject of assay [8] is A-375P BRAF V600E (melanoma). In words: MTT assay. Type of assay: cell-based. The settings on record: Table 5; 3 days incubation. The procedure: as §1, §2

Each structure is given as a SMILES string. Where two headings read alike, the source gives them in different places.

As to `O=C(Nc1ccc(F)c(Nc2ncccc2-c2ncnc3[nH]cnc23)c1F)c1cc(N2CCOCC2)cc(C(F)(F)F)c1` [Comparative Example 1, reference compound], the IC50 in assay [1] (Table 4) was more than 50 µM; in assay [1] (Table 5) it was 55.3 µM; in assay [3], 15 µM; in assay [4], 50 µM; in assay [5] it was 0.335 µM; in assay [6], 15.5 µM. Moreover, the half-inhibitory concentration (IC50) in assay [7] was found to be 4.34 µM; in assay [8], 0.002 µM. For the same compound, the “antitumor effect (tumor growth inhibition) compared to the vehicle control” value in assay [2] is 3.82%.
